Results reported in paper PMC4301037, “Identification and Structure–Function Analysis of Subfamily Selective G Protein-Coupled Receptor Kinase Inhibitors” (ACS Chemical Biology, 2014).

By UniProt entry, the sequences of proteins in these tests, tags left out.
UniProt P43249, whole entry: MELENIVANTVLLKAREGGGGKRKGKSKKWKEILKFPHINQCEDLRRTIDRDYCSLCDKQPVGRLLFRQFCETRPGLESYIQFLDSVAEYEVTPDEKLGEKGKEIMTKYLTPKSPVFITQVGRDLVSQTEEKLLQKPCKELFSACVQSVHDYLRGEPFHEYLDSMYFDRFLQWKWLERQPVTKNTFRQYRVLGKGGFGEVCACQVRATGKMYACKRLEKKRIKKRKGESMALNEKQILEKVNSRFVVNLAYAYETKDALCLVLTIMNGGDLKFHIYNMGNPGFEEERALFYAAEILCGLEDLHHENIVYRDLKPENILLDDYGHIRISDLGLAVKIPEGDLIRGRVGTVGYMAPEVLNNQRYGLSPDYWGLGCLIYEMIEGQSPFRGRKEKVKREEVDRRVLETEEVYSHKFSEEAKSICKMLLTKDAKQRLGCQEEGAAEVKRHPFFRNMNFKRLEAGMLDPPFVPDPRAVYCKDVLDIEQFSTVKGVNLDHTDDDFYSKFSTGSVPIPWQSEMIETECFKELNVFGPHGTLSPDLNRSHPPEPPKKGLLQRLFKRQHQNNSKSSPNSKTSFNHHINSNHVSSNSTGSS

What was measured:
GRK5 = biological target: T1, GRK5 (Bos taurus, UniProt P43249); experiment: In vitro phosphorylation assay (tubulin, 5 μM ATP), GRK5; assay type: biochemical, bovine
T1 construct: when using full-length kinases as the receptor[37] instead of isolated kinase domains; made in house

GRK2 = biological target: T2, GRK2 (Bos taurus, UniProt P21146, S670A); experiment: In vitro phosphorylation assay (tubulin, 5 μM ATP), GRK2; assay type: biochemical, bovine
T2 construct: made in house
T2 sequence (P21146 1-689 S670A): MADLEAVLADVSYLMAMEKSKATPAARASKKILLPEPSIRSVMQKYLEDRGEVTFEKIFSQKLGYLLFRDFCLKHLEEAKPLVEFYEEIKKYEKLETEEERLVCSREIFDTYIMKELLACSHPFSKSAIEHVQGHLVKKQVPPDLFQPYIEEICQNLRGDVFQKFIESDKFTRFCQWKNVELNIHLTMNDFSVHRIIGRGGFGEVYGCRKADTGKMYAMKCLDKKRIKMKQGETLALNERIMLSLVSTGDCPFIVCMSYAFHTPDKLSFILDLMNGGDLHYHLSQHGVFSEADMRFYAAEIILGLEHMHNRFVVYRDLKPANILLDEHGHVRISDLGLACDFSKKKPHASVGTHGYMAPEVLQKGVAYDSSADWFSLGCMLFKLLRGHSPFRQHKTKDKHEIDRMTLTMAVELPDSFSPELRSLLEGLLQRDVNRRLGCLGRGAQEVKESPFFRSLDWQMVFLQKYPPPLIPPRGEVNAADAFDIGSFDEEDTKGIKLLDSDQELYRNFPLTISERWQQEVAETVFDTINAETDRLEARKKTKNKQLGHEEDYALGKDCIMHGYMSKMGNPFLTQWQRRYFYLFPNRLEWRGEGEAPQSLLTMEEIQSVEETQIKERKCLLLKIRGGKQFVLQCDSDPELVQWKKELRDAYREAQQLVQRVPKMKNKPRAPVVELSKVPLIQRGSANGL

SMILES: COc1cc2c(cc1Nc1nc(Nc3ccsc3C(N)=O)c3cc[nH]c3n1)N(C(=O)CN(C)C)CCC2(C)C [GSK2163632A]
- IC50 (GRK5): 3.16 µM
- IC50 (GRK2): 20 µM
